In ChEMBL document CHEMBL5331128, “Alicyclic Ring Size Variation of 4-Phenyl-2-naphthoic Acid Derivatives as P2Y14 Receptor Antagonists” (J Med Chem, 2023):

Target: T1, P2Y purinoceptor 14 (Homo sapiens, UniProt Q15391)
T1 sequence (Q15391 whole entry): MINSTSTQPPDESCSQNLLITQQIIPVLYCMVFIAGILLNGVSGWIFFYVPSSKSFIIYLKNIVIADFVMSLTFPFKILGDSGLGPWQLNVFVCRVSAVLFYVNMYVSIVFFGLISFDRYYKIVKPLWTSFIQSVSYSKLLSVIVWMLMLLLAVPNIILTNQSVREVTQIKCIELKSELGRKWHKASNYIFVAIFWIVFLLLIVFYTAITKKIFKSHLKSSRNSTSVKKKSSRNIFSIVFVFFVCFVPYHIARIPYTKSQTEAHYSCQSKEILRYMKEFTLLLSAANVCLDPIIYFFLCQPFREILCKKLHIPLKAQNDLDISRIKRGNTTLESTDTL
Experiment: Displacement of fluorescent tracer 4-(4-(1-(4-(1-(6-(3-carboxylato-4-(3-iminio-3H-xanthen-9-yl)benzamido)hexyl)-4,5-dihydro-1H-pyrrol-3-yl)butyl)piperidin-1-ium-4-yl)phenyl)-7-(4-(trifluoromethyl)phenyl)-2-naphthoate from human P2Y14R stably expressed in CHO cells assessed as inhibition constant by flow cytometry
Format: cell-based
In short: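 Whole-cell competitive binding: CHO cells expressing hP2Y14R (or HEK-293 cells expressing mP2Y14R) incubated with AlexaFluor488-labelled antagonist tracer at 20 nM. […] Ki derived by dividing IC50 by 1.72.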

O=C(O)c1cc(-c2ccc(C3CCNC3)cc2)c2ccc(-c3ccc(C(F)(F)F)cc3)cc2c1 (racemic)
Ki: 18.3 nM
